Reference: US20230381129A1, “PERMETRIN FOR USE IN THE TREATMENT OF DEMODEX SPP INFESTATION” (priority 2020, published 2023)

System: Demodex mites
Experiment: In vitro survival study of Demodex mites on a glass slide without a coverslip
Design: species or system Demodex spp.
Experimental: At least ten eyelashes from the upper and lower eyelids of both eyes were randomly collected from all subjects from the subsequent groups. The collected material was assessed in a UB-203i light microscope with a five-point revolver bowl and a vision track with a magnification of 4×, 10×, 20×, 40× and 100×, archiving the results with a digital camera type Toupcam TP 601300A from Touptek Photonics installed in the device.
In the case of the presence of Demodex mites, several dozen different chemical compounds in various concentrations with a potential demodicidal effect were used on the glass slide without the use of a coverslip. […] The in vitro test results for permethrin and fluralaner were archived using a Toupcam TP 601300A digital camera from Touptek Photonics mounted on the device.

CCN(Cc1ccncc1)C(=O)C(CO)c1ccccc1 (stereo not shown) [Tropicamidum]
Time of Survival of Demodex mites: more than 15 minutes
